Here are results for 1 substance from PMC7466261, “In Silico and In Vitro Analysis of Multifunctionality of Animal Food-Derived Peptides” (Foods, 2020).

Sequences of proteins named here, by UniProt entry; tags and fusion partners are left off. A change or cut given only in a name is not applied to a line headed by its entry.
UniProt P02662: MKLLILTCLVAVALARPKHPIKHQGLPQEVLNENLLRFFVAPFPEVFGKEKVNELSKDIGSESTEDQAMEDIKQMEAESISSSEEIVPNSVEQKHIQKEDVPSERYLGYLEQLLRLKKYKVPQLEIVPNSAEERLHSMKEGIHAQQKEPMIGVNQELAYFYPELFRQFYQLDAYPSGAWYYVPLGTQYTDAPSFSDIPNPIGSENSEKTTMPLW

A short description of experiment [1]: Oxygen radical absorbance capacity (ORAC)-FL assay. The following applies: mean ± SD. On the procedure:
An oxygen radical absorbance capacity (ORAC)-FL assay was used based on the protocol previously optimized. The reaction was performed at 37 °C in 75 mM phosphate buffer (pH 7.4). The final assay mixture volume was 200 µL, containing 70 nM FL, 12 mM AAPH, and antioxidant [(Trolox, 1–8 µM) or sample (at different concentrations)]. Fluorescence was measured during 137 min in a FLUOstar OPTIMA plate reader (BMG Labtech) with 485 nm excitation and 520 nm emission filters. The equipment was controlled by the FLUOstar Control ver. 1.32 R2 software for fluorescence measurement. Samples were analyzed in triplicate. The final ORAC-FL value was expressed as μmol Trolox equivalents (TE) per μmol peptide.

For experiment [2] the following is noted: MBPDB; cited from earlier work.
The nature of experiment [3]: ABTS assay (TEAC). The following applies: mean ± SD. The procedure: Antioxidant activity was measured using a previously optimized method with some modifications. A mixture of 7 mM ABTS stock solution and 2.45 mM potassium persulfate was kept in the dark at room temperature for 12-16 h to form the ABTS radical cation (ABTS^•+). The ABTS^•+ solution was diluted in 5 mM of phosphate buffer solution (PBS) (pH 7.4) to an absorbance of 0.70 ± 0.02 at 734 nm at 30 °C. Two mL of diluted ABTS^•+ solution were mixed with 20 μL of sample or Trolox (0–0.015 μmol), and the absorbance was recorded at 734 nm after 10 min incubation at 30 °C. The Trolox equivalent antioxidant capacity (TEAC) value was expressed as μmol TE per μmol peptide. Each sample was analyzed in triplicate.

Consider “RY: synthetic peptide, αS1-casein f(90–91) (UniProt P02662 105-106, looked up, fragment)”, for which, in experiment [1], the “Antioxidant Activity ORAC” value came out at 1.83 ± 0.13 µmol TE/µmol peptide. Besides, the ORAC result in experiment [2] is on record as “ORAC = 1.94 µmol TE/µmol peptide **”. The “Antioxidant Activity TEAC” value in experiment [3] is reported as 1.38 ± 0.03 µmol TE/µmol peptide.
